By UniProt entry, the sequences of proteins in these tests, tags left out. Residues count along the entry.
UniProt P55055, 222-460: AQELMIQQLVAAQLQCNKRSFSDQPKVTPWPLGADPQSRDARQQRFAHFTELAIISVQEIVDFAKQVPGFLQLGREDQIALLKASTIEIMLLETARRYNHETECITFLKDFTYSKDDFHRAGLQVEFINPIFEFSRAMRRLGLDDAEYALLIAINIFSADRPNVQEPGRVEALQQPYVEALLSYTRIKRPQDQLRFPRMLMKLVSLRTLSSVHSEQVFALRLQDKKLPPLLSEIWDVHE

In patent US9073931B2, “Liver X receptor modulators” (Vitae Pharmaceuticals, Inc., priority 2012, dated 2015):

Key:
[1] = target: T1, LBD of LXRβ (Homo sapiens (Human), UniProt P55055); experiment: cell-based
[2] = target: T1, LBD of LXRβ
[3] = target: LXR β LBD protein (Homo sapiens (Human), UniProt P55055); experiment: LXR β radioligand binding assay (SPA, [3H]T0901317 competition); conditions: competition with 15 nM [3H]T0901317, LXRβ LBD

SMILES	EC50 [1]	EC50 [2]	Ki [3]
CC(O)c1cnc(N2CCn3c(nc4cc(CO)c(S(C)(=O)=O)cc43)[C@@H]2C(C)C)nc1C(F)(F)F (single isomer, unassigned) [Compound E8a, 1-(2-(8-(hydroxymethyl)-1-isopropyl-7-(methylsulfonyl)-3,4-dihydrobenzo[4,5]imidazo[1,2-a]pyrazin-2(1H)-yl)-4-(trifluoromethyl)pyrimidin-5-yl)ethanol]	2040 nM		
CC(O)c1cnc(N2CCn3c(nc4cc(CO)c(S(C)(=O)=O)cc43)[C@H]2C(C)C)nc1C(F)(F)F (single isomer, unassigned) [Compound E8b, 1-(2-(8-(hydroxymethyl)-1-isopropyl-7-(methylsulfonyl)-3,4-dihydrobenzo[4,5]imidazo[1,2-a]pyrazin-2(1H)-yl)-4-(trifluoromethyl)pyrimidin-5-yl)ethanol]	21 nM		
CC(O)c1cnc(N2CCn3c(nc4cc(CO)c(S(C)(=O)=O)cc43)[C@H]2C(C)C)nc1C(F)(F)F (single isomer, unassigned) [Compound E8c, 1-(2-(8-(hydroxymethyl)-1-isopropyl-7-(methylsulfonyl)-3,4-dihydrobenzo[4,5]imidazo[1,2-a]pyrazin-2(1H)-yl)-4-(trifluoromethyl)pyrimidin-5-yl)ethanol]	19 nM		
CC(O)c1cnc(N2CCn3c(nc4cc(CO)c(S(C)(=O)=O)cc43)[C@@H]2C(C)C)nc1C(F)(F)F (single isomer, unassigned) [Compound E8d, 1-(2-(8-(hydroxymethyl)-1-isopropyl-7-(methylsulfonyl)-3,4-dihydrobenzo[4,5]imidazo[1,2-a]pyrazin-2(1H)-yl)-4-(trifluoromethyl)pyrimidin-5-yl)ethanol]		2040 nM	
CCC(O)c1cnc(N2CCn3c(nc4cc(CO)c(S(C)(=O)=O)cc43)[C@@H]2C(C)C)nc1C(F)(F)F (single isomer, unassigned) [Compound E10a, 1-(2-(8-(hydroxymethyl)-1-isopropyl-7-(methylsulfonyl)-3,4-dihydrobenzo[4,5]imidazo[1,2-a]pyrazin-2(1H)-yl)-4-(trifluoromethyl)pyrimidin-5-yl)propan-1-ol]	2400 nM		> 2500 nM
CCC(O)c1cnc(N2CCn3c(nc4cc(CO)c(S(C)(=O)=O)cc43)[C@H]2C(C)C)nc1C(F)(F)F (single isomer, unassigned) [Compound E10b, 1-(2-(8-(hydroxymethyl)-1-isopropyl-7-(methylsulfonyl)-3,4-dihydrobenzo[4,5]imidazo[1,2-a]pyrazin-2(1H)-yl)-4-(trifluoromethyl)pyrimidin-5-yl)propan-1-ol]	26 nM		
CCC(O)c1cnc(N2CCn3c(nc4cc(CO)c(S(C)(=O)=O)cc43)[C@H]2C(C)C)nc1C(F)(F)F (single isomer, unassigned) [Compound E10c, 1-(2-(8-(hydroxymethyl)-1-isopropyl-7-(methylsulfonyl)-3,4-dihydrobenzo[4,5]imidazo[1,2-a]pyrazin-2(1H)-yl)-4-(trifluoromethyl)pyrimidin-5-yl)propan-1-ol]	12 nM		
CCC(O)c1cnc(N2CCn3c(nc4cc(CO)c(S(C)(=O)=O)cc43)[C@@H]2C(C)C)nc1C(F)(F)F (single isomer, unassigned) [Compound E10d, 1-(2-(8-(hydroxymethyl)-1-isopropyl-7-(methylsulfonyl)-3,4-dihydrobenzo[4,5]imidazo[1,2-a]pyrazin-2(1H)-yl)-4-(trifluoromethyl)pyrimidin-5-yl)propan-1-ol]	1660 nM		
CC(C)[C@@H]1c2nc3cc(CO)c(S(C)(=O)=O)cc3n2CCN1c1ncc(CO)c(C(F)(F)F)n1 (single isomer, unassigned) [Compound E13a]	45 nM		17 nM
CC(C)[C@H]1c2nc3cc(CO)c(S(C)(=O)=O)cc3n2CCN1c1ncc(CO)c(C(F)(F)F)n1 (single isomer, unassigned) [Compound E13b]	1050 nM		1040 nM
CNC(=O)c1cnc(N2CCn3c(nc4cc(CO)c(S(C)(=O)=O)cc43)[C@H]2C(C)C)nc1C(F)(F)F (single isomer, unassigned) [Compound E16a]	1730 nM		
CNC(=O)c1cnc(N2CCn3c(nc4cc(CO)c(S(C)(=O)=O)cc43)[C@@H]2C(C)C)nc1C(F)(F)F (single isomer, unassigned) [Compound E16b]	> 20000 nM		> 2500 nM

Like-named read-outs stand apart in the source and are kept apart here.
